# Reference: article PMC13061415 (2026)
# B1: RanBP10 CTLH-CRA domain Q519G (domain or fragment)
# chain: GPEEQASIKNRQKIQKLVLEGRVGEAIETTQRFYPGLLEHNPNLLFMLKCRQFVEMVNGTDSEVRSLSSGGNQAATERIILFGRELGALSEQLGREYGKNLAHTEMLQDAFSLLAYSDPWSCPVGHQLDPIQREPVCAALNSAILESQ
# Molecular target: muskelin CTLH-CRA domain (205–735 Δ248–625) (rat, UniProt Q99PV3 205-735, Δ248–625)
# Test: ITC
binder,measurement,value
B1,Kd,8.49 nM
